In the assay the target is HDAC enzymes (Hela Nuclear Extract). The format is biochemical.

Compound `CC(/C=C/C(=O)NO)=C\[C@@H](C)C(=O)c1ccc(N(C)C)cc1` [Trichostatin A] yielded an IC50 of 2.1 nM. This counts as single-digit nanomolar.

Source of the values: patent publication US10118901B2 (priority 2013, dated 2018).
